# Measurements reported in patent publication US20110105397A1, “METHOD FOR TREATING HEART FAILURE WITH STRESSCOPIN-LIKE PEPTIDES” (priority 2009, published 2011).
# Protein sequences, listed by entry. Tags and fused reporters are not part of them. Residues count along the entry.
# UniProt Q60748, 1-431 isoform Q60748-2: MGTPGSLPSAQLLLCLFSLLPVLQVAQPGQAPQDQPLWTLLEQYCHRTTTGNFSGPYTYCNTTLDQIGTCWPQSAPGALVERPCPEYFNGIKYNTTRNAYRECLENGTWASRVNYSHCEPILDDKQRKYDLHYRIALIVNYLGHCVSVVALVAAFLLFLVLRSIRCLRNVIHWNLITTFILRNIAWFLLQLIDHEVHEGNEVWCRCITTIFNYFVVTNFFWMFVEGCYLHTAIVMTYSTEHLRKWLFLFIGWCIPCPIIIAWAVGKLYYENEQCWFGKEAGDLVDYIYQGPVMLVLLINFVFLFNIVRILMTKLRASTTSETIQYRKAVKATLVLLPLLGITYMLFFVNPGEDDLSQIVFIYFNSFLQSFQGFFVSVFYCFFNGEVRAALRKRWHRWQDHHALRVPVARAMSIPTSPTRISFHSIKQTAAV
# “And” between values parts separate entries of the source, which are not always exact repeats. Equal entries are not always repeated. Where two headings read alike, the source gives them in different places.
# Tests used:
# human CRHR2 = target: T1, human CRHR2 (Homo sapiens, UniProt Q13324); experiment: cAMP assay, h-CRHR2 transfected SK-N-MC cells; type: cell-based; details: for nH (Hill slope) / αmax (maximal asymptote): h-CRHR2; for αmax (maximal asymptote): in %
# T1 construct: expressed in transfected cells
# T1 sequence (Q13324 1-411): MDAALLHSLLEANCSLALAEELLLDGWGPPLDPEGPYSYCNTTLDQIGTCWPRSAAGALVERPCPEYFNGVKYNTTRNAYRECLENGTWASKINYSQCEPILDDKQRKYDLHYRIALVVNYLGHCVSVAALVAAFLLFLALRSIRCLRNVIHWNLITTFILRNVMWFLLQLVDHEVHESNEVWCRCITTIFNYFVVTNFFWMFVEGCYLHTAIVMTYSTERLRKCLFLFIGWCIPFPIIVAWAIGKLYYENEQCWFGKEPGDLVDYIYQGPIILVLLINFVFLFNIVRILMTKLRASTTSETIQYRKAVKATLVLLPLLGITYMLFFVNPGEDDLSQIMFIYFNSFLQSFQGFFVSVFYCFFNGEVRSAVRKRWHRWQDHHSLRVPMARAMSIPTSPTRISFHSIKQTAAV
# Protocol: (§1) The concentration required for 50% maximum effect (A50) was 0.4 nM.
# (§2) Human CRHR1 (accession number X72304) or CRHR2 (accession number U34587) were cloned into pcDNA3.1/Zeo expression vector and stably transfected into SK—N-MC cells by electroporation. Cells were maintained in MEM w/Earl's Salt with 10% FBS, 50 I.U. penicillin, 50 μg/ml streptomycin, 2 mM L-glutamine, 1 mM sodium pyruvate and 0.1 mM non-essential amino acids, 600 μg/ml G418. Cells were grown at 37° C. in 5% CO2
# (§3) Cells were plated in 96-well tissue culture dishes (Biocoat from BD Biosciences) overnight at 50,000 cell/well. Cells were washed with PBS then resuspended in DMEM F-12 without phenol red, containing 10 μM isobutylmethylxanthine (IBMX). Cells were incubated with the peptides at concentrations ranging from 1 pM to 10 μM for 60 min at 37° Celsius. […] Forskolin (10 μM), a direct stimulant of adenylate cyclase, was used as positive control. The assays were stopped by the addition of 0.5 M HCl and mixing by orbital rotation for 2 h at 4° Celsius.
# To assess the activity of the inventive polypeptide at the CRHR2, an intracellular cAMP measurement test using a Flash plate radioactive assay (Catalog No. Cus56088; Perkin Elmer, Mass., U.S.A.) was employed.
# Transfected SK—N-MC cells were plated in 96-well Biocoat tissue culture dishes (BD Biosciences, San Jose, Calif., U.S.A) overnight at 50,000 cell/well. Cells were first washed with PBS and then suspended with DMEM/F-12 without phenol red, containing […]. Suspended cells were transferred into a 96-well flash plate coated with scintillant fluid. Cells were incubated with peptides ranging from 1 pM to 1 μM, for 60 min, at 37° Celsius. Forskolin at 10 μM was used as positive control. After ligand stimulation, cells were lysed by the addition of 0.5M HCl and mixed by orbital rotation for 2 h at 4° Celsius in order to release intracellular cAMP into the media.
# Media containing released intracellular cAMP was transferred to a 96-well flash plate coated with scintillant fluid containing an anti-cAMP antibody. In this assay, intracellular cAMP competes with ^125I-labeled cAMP binding to the antibody. To generate a standard curve, cAMP ranging from 2.5 to 250 pmoles/ml was included in the experiment. [^125I]-cAMP was measured on a TopCount scintillation counter (Perkin Elmer, Mass., U.S.A).
# (§4) Individual agonist concentration-response curve data were fitted to the Hill equation, see formula below, using GraphPad Prism (Graphpad Software, La Jolla, Calif., U.S.A.), to provide estimates of agonist concentration needed to generate one-half maximal response (A50), and the maximal asymptote (α) and Hill slope (nH) parameters. In this equation, [A] is the agonist concentration and E is the measured effect:
# For display purposes the mean fitted parameter estimates were used to generate a single E/[A] curve shown superimposed on the mean experimental data. Potency estimates for agonists, pA50, are expressed as the negative logarithm of the midpoint of each curve and listed with their standard error of measurement (SEM). Logarithm base 10 of the agonist dose ratio (Log DR) values were calculated by subtraction of the test compound pA50 value from the corresponding h-SCP (SEQ ID NO:1) control pA50 value within the same assay batch. The SEM values of the Log DR values are given by the square root of the sum of the squared SEM values of the h-SCP (SEQ ID NO:1) control and test compound pA50 values.
# Human and rat peptides (see Table 10) were used on the stimulation of h-CRHR1 or h-CRHR2 transfected SK—N-MC cells in the cAMP flash plate assay. Peptides were incubated for 1 hr at 37° Celsius. Curves were calculated using non-linear regression sigmoidal concentration-response analysis calculation in GraphPad Prism. The so obtained pA50 values are shown in Table 11 in addition to literature values. […]
# m-CRHR2b = m-CRHR2b (Mus musculus, UniProt Q60748); details: m-CRHR2b transfected CHO-K1 cells (Lewis et al., 2001); cited from earlier work
# CRHR1 = target: T2, CRHR1 (Homo sapiens, UniProt P34998); experiment: cAMP assay, h-CRHR1 transfected SK-N-MC cells; type: cell-based; design: expressed in transfected cells; details: Table 11; for EC50: h-CRHR1 transfected SK-N-MC cells, 1 hr at 37° Celsius, read-out: pA50 (Experimental) (converted)
# T2 sequence (P34998 24-415): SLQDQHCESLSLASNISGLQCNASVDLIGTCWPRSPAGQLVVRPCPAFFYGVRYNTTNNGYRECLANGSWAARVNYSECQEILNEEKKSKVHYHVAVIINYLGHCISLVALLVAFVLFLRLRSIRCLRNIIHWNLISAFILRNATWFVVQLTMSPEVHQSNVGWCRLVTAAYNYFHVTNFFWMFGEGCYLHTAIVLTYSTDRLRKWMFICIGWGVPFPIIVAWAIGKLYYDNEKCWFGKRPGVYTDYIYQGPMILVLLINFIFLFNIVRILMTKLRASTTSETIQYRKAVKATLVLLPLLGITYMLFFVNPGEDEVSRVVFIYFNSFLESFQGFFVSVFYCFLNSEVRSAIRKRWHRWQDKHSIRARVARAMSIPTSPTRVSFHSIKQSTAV
# Protocol: as §1, §2
# as §3, with “4° Celsius. […]” for “4° Celsius.”
# Media containing released intracellular cAMP was transferred to a 96-well flash plate coated with scintillant fluid containing an anti-cAMP antibody. […] [^125I]-cAMP was measured on a TopCount scintillation counter (Perkin Elmer, Mass., U.S.A).
# as §4
# For display purposes the mean fitted parameter estimates were used to generate a single E/[A] curve shown superimposed on the mean experimental data. Potency estimates for agonists, pA50, are expressed as the negative logarithm of the midpoint of each curve and listed with their standard error of measurement (SEM). […]
Structure (SMILES),"nH (Hill slope) (human CRHR2; Table 11, listed as h-UCN2)","αmax (maximal asymptote) (human CRHR2; Table 11, listed as h-UCN2)",nH (human CRHR2; Table 14),"αmax (human CRHR2; Table 14, % of the maximum response obtained to h-SCP) [%]","EC50 (human CRHR2; Table 14, read-out: pA50 (converted)) [nM]",Published pA50 (m-CRHR2b),nH (Hill slope) (CRHR1; h-CRHR1),EC50 (CRHR1) [nM],nH (Hill slope) (human CRHR2; Table 11),αmax (maximal asymptote) (human CRHR2; Table 11),"EC50 (human CRHR2; Table 11, h-CRHR2 transfected SK-N-MC cells, 1 hr at 37° Celsius, read-out: pA50 (Experimental) (converted)) [nM]"
"CC[C@H](C)[C@H](N)C(=O)N[C@H](C(=O)N[C@@H](CC(C)C)C(=O)N[C@@H](CO)C(=O)N[C@@H](CC(C)C)C(=O)N[C@@H](CC(=O)O)C(=O)N[C@H](C(=O)N1CCC[C@H]1C(=O)N[C@H](C(=O)NCC(=O)N[C@@H](CC(C)C)C(=O)N[C@@H](CC(C)C)C(=O)N[C@@H](CCC(N)=O)C(=O)N[C@H](C(=O)N[C@@H](CC(C)C)C(=O)N[C@@H](CC(C)C)C(=O)N[C@@H](CCC(=O)O)C(=O)N[C@@H](CCC(N)=O)C(=O)N[C@@H](C)C(=O)N[C@@H](CCCNC(=N)N)C(=O)N[C@@H](C)C(=O)N[C@@H](CCCNC(=N)N)C(=O)N[C@@H](C)C(=O)N[C@@H](C)C(=O)N[C@@H](CCCNC(=N)N)C(=O)N[C@@H](CCC(=O)O)C(=O)N[C@@H](CCC(N)=O)C(=O)N[C@@H](C)C(=O)N[C@H](C(=O)N[C@H](C(=O)N[C@@H](CC(N)=O)C(=O)N[C@@H](C)C(=O)N[C@@H](CCCNC(=N)N)C(=O)N[C@H](C(=O)N[C@@H](CC(C)C)C(=O)N[C@@H](C)C(=O)N[C@@H](CCCNC(=N)N)C(=O)N[C@H](C(N)=O)C(C)C)[C@@H](C)CC)[C@@H](C)O)[C@@H](C)O)[C@@H](C)CC)[C@@H](C)CC)C(C)C)C(C)C [SEQ ID NO: 115, IVLSLDVPIGLLQILLEQARARAAREQATTNARILARV-NH2, reference compound]",0.9 and 0.72,114.7 and 128.9,1.34,116.9,0.309,9.37,1.69,955,,,
"CC[C@H](C)[C@H](NC(=O)[C@H](CCC(N)=O)NC(=O)[C@H](C)NC(=O)[C@H](CCSC)NC(=O)[C@H](CC(C)C)NC(=O)[C@H](Cc1c[nH]cn1)NC(=O)[C@H](C)NC(=O)[C@H](CC(N)=O)NC(=O)[C@H](C)NC(=O)[C@H](C)NC(=O)[C@H](C)NC(=O)[C@H](CCC(N)=O)NC(=O)[C@H](C)NC(=O)[C@H](CCCNC(=N)N)NC(=O)[C@H](CC(C)C)NC(=O)[C@H](CC(N)=O)NC(=O)[C@H](CCCCN)NC(=O)[C@H](C)NC(=O)[C@H](CCCCN)NC(=O)[C@H](C)NC(=O)[C@@H](NC(=O)[C@H](CC(N)=O)NC(=O)[C@H](Cc1ccccc1)NC(=O)[C@H](CC(C)C)NC(=O)[C@H](CC(C)C)NC(=O)[C@H](CC(N)=O)NC(=O)[C@H](CCSC)NC(=O)[C@@H](NC(=O)[C@H](CC(N)=O)NC(=O)[C@@H](NC(=O)[C@@H]1CCCN1C(=O)[C@@H](NC(=O)[C@H](CC(=O)O)NC(=O)[C@H](CC(C)C)NC(=O)[C@H](CO)NC(=O)[C@H](CC(C)C)NC(=O)[C@@H](NC(=O)[C@@H](N)Cc1ccccc1)[C@@H](C)O)C(C)C)[C@@H](C)O)[C@@H](C)CC)[C@@H](C)CC)C(N)=O [SEQ ID NO: 116, FTLSLDVPTNIMNLLFNIAKAKNLRAQAAANAHLMAQI-NH2]",,,,,,9.92^2,,> 10000,1.02,101.8,0.55
